Laboratory results from patent publication US11458122B2, “Methods for treating diseases and nerve injuries” (CHILDREN'S HOSPITAL MEDICAL CENTER, priority 2017, dated 2022).

Settings: PDA106 100 mg/kg, RGFP966 10 mg/kg

Question: For `Cc1ccc(NC(=O)CCCCCC(=O)Nc2ccccc2N)cc1` [PDA106, N1-(2-Aminophenyl)-N7-(4-methylphenyl)-heptanediamide], which “tolerability / side effects in mice” value is on record?
Answer: without adverse effects on mice
